# scFv variants of Ab-14 (light chain) against a SARS-CoV-2 spike peptide

Antigen: PDVDLGDISGINAS, a 14-residue peptide of the SARS-CoV-2 spike HR2 region.

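Phage display of a naive human antibody library on the peptide gave the parent. This is the validation round: designs drawn from the data on random variants, tested in the same kind of assay. Their group label is 14L_GP_Gibbs (GP: Gaussian process model; Gibbs: Gibbs sampling; a sequence that several methods proposed may carry one label only). AlphaSeq pools MATa yeast showing the antibodies with MATalpha yeast showing the peptide. The frequency of each diploid, read from paired DNA barcodes, reflects how well the two displayed proteins bind. A regression on co-assayed BCL2-family reference pairs converts the normalised counts of each replicate to an apparent Kd. The assay was run in six technical replicates.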

Ab-14 is the parent antibody, in scFv form: VH, then a 15-residue (Gly4Ser)3 linker, then VL. The heavy chain is unchanged in all variants.
VH: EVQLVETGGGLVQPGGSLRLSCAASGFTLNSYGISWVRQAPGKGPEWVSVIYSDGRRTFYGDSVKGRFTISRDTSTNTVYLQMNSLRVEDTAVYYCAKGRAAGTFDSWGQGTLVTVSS
VL: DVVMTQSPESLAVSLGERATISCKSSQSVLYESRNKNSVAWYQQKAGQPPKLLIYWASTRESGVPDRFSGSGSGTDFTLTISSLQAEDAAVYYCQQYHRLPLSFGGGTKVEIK

Changes read parent residue, position, new residue, counted from the first residue of the VL shown. Affinities are written as log10 Kd with Kd in nM; a lower number is a better binder. In the paper, a design with two or fewer of six values counts as a poor binder. Background: pairings of all light chain designs with three empty control strains gave a value in 4% of cases (median 2.64, 5th percentile 1.59). Values in that range, when seen in few replicates, are hard to tell from nonspecific mating. For each scFv, signals with the empty controls are counted beside the result, with their mean in brackets. Values of this round are not directly comparable with the first-round values of the same sequences.

changes	log10 Kd (nM) by replicate	signal with controls
S25L S26D Y31E E32K Q96D	0.92 / 0.45 / 0.56 / 0.63 / 0.53 / 0.66	5 of 18 (2.70)
S25F L30C S33Q N35Q W56N E61M	0.40 / 0.14 / 0.11 / 0.18 / 0.19 / 0.41	5 of 18 (2.58)
S25V S28K V29N N35M W56M T59Q S62M	0.48 / 0.74 / 0.39 / 0.48 / 0.46 / 0.86	1 of 18 (2.14)
S25F S28G V29Y L30W S33Q W56N T59Q	0.81 / 0.69 / 0.56 / 0.36 / 0.56 / 0.56	1 of 18 (2.47)
S25M S26A S28G V29W L30E N35W W56N T59V	0.35 / 0.27 / 0.08 / 0.15 / 0.28 / 0.34	1 of 18 (2.86)
K24V S25L S26Q S28L V29G W56S E61L S62P	0.21 / 0.23 / -0.15 / -0.03 / -0.08 / 0.36	0 of 18
S25F V29W S33Q N35Q K36V W56N T59Y E61L S62L	0.58 / -0.08 / 0.22 / 0.20 / 0.27 / 0.35	0 of 18
K24F S25L N35L K36D W56N T59Q E61C	0.90 / 0.63 / 0.56 / 1.20 / 0.63 / 0.86	2 of 18 (2.87)
S25A S26P V29M L30W K36Q W56Q E61S S62Q S103Q	0.84 / 0.26 / 0.12 / 0.19 / 0.25 / 0.00	0 of 18
L30C E32G S33D N35M W56N S62Q	0.03 / 0.15 / 0.18 / 0.11 / 0.21 / 0.50	2 of 18 (1.92)
S25V Q27I S28G L30W Y31G E32G S33D W56D	0.40 / 0.33 / 0.29 / 0.19 / 0.26 / 0.44	1 of 18 (2.39)
S26E V29S L30P S33D W56N T59L E61C	0.48 / 0.45 / 0.23 / 0.05 / 0.09 / 0.41	0 of 18
S25V S28W V29Q N35M S38A W56N E61C S62D	0.94 / 1.31 / 0.89 / 1.27 / 1.57 / 1.32	0 of 18
S25F S26V V29D L30D S38N W56Q T59Q S62Q	0.27 / 0.26 / 0.20 / -0.01 / 0.10 / 0.33	1 of 18 (2.41)
S25V S28C V29M K36A W56N T59Q S62E	0.22 / 0.11 / 0.19 / 0.06 / 0.11 / 0.18	1 of 18 (3.87)
S25V S26E V29N L30P W56N T59Q E61L	0.51 / 0.37 / 0.25 / 0.48 / 0.42 / 0.84	2 of 18 (2.51)
S25L Q27P L30M N35M W56M E61Y S62T	0.26 / -0.17 / -0.09 / -0.07 / -0.05 / 0.02	0 of 18
S25I Q27C S28A L30Y E32G S33D N37M W56D T59Q	0.40 / 0.27 / 0.16 / 0.24 / 0.38 / 0.28	0 of 18
K24L S25I L30E N35D W56N E61L	0.27 / -0.07 / 0.15 / 0.24 / 0.22 / 0.39	0 of 18
S25H S33D N35V W56D T59Q	0.23 / 0.14 / 0.03 / -0.32 / -0.13 / 0.25	1 of 18 (2.77)
S25L Q27G V29M E32Q S38N W56E T59Q S62Q Q96S	0.09 / 0.18 / 0.17 / -0.19 / 0.21 / 0.17	4 of 18 (2.99)
S25F S26E S28L V29H W56Q A57G S62M	0.38 / 0.05 / -0.22 / -0.29 / 0.12 / 0.12	0 of 18
S25I V29Q S33D N37K W56N E61C	0.04 / -0.12 / 0.41 / 0.09 / -0.27 / -0.15	0 of 18
S25L Q27G V29M S33L K36L W56Q T59Q E61M	0.08 / -0.58 / -0.65 / -0.71 / -0.65 / -0.48	0 of 18
S25V Q27Y L30E S33D W56M T59Q E61N	0.29 / 0.14 / -0.27 / 0.26 / 0.12 / 0.54	1 of 18 (2.11)
S25I L30P S33D K36F W56H T59Y E61I	2.07 / 1.76 / 2.63 / 2.01 / 2.97 / 1.41	1 of 18 (2.41)
S25V V29K Y31G W56N S62D	0.13 / -0.14 / -0.02 / -0.15 / -0.18 / -0.02	1 of 18 (2.82)
S25Q S26Q V29A Y31G S33E K36F W56H E61I	1.31 / 0.93 / 0.87 / 0.83 / 0.91 / 1.01	2 of 18 (2.46)
Q27C V29E L30P E32D R34P K36S W56N S62R	0.63 / 0.53 / 0.46 / 0.49 / 0.43 / 0.77	1 of 18 (2.63)
S25Q S26Q V29A Y31G S33E K36F W56H	0.94 / 0.18 / 0.29 / 0.32 / 0.09 / 0.41	0 of 18
S25L V29Q K36H N37K S38N W56N E61V	-0.11 / -0.18 / -0.15 / -0.14 / -0.12 / -0.13	0 of 18
S25F V29F K36S S38A W56E Q96D	1.05 / 0.89 / 0.95 / 0.77 / 0.84 / 0.86	0 of 18
S25V S26D Q27F V29W L30W W56N S62R	0.48 / -0.05 / 0.05 / 0.16 / 0.01 / 0.11	0 of 18
S25L Q27M Y31M S33Q W56S S58N T59Q S62E	0.02 / 0.32 / 0.00 / 0.14 / 0.02 / 0.03	3 of 18 (3.51)
S25L V29W L30P Y31G S33Q W56S S62Q	0.34 / 0.12 / 0.00 / 0.00 / -0.09 / 0.12	3 of 18 (3.93)
S25L S28G V29W K36A S38N W56N T59W S62Q	0.26 / 0.13 / 0.09 / -0.15 / 0.01 / -0.04	1 of 18 (2.87)
S25L S28G V29E Y31M W56E T59C S62E	0.17 / -0.03 / -0.06 / -0.08 / -0.17 / 0.17	0 of 18
S25L Q27N V29D E32Q W56N E61Y	0.30 / -0.31 / 0.58 / -0.45 / -0.40 / -0.07	0 of 18
S25W Q27I V29D Y31Q E32G S33D W56H T59C S62Q	1.08 / 1.51 / 1.04 / 1.07 / 1.14 / 1.13	1 of 18 (2.42)
S25L Q27M S33D N35H W56G T59K E61F	1.30 / 1.56 / 1.05 / 1.69 / 1.57 / 1.27	1 of 18 (3.19)
V29Q L30P W56N T59Q E61Y S62Q	0.20 / 0.06 / -0.02 / 0.01 / 0.27 / 0.20	0 of 18
S25L S26Q Q27A S28Q V29D L30E E32W W56Q S62Q	-0.48 / -0.46 / -0.53 / -0.67 / -0.57 / -0.51	0 of 18

For reference, 6 entries of the list once more:

| changes | log10 Kd (nM) by replicate | signal with controls |
|---|---|---|
| S25I L30P S33D K36F W56H T59Y E61I | 2.07 / 1.76 / 2.63 / 2.01 / 2.97 / 1.41 | 1 of 18 (2.41) |
| L30C E32G S33D N35M W56N S62Q | 0.03 / 0.15 / 0.18 / 0.11 / 0.21 / 0.50 | 2 of 18 (1.92) |
| S26E V29S L30P S33D W56N T59L E61C | 0.48 / 0.45 / 0.23 / 0.05 / 0.09 / 0.41 | 0 of 18 |
| S25F L30C S33Q N35Q W56N E61M | 0.40 / 0.14 / 0.11 / 0.18 / 0.19 / 0.41 | 5 of 18 (2.58) |
| S25W Q27I V29D Y31Q E32G S33D W56H T59C S62Q | 1.08 / 1.51 / 1.04 / 1.07 / 1.14 / 1.13 | 1 of 18 (2.42) |
| S25H S33D N35V W56D T59Q | 0.23 / 0.14 / 0.03 / -0.32 / -0.13 / 0.25 | 1 of 18 (2.77) |

Source: Li et al. 2023 (doi:10.1038/s41467-023-39022-2), MIT Lincoln Laboratory and A-Alpha Bio; data file from the FLAb repository.